## Antibody variant affinities, Ab-14 heavy chain, assay 1

The measurements come from Engelhart et al. 2022 (doi:10.1038/s41597-022-01779-4) through the FLAb antibody collection.

Antigen: PDVDLGDISGINAS, a 14-residue peptide of the SARS-CoV-2 spike HR2 region.

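The starting antibody came from a phage panning campaign against this peptide. In library AAYL49, one, two or three CDR residues were substituted; doubles and triples were drawn at random. The assay is AlphaSeq: two haploid yeast populations carry antibody and antigen on their surface. Mating (16 h, 30 °C) was followed by selection of diploids and sequencing of their barcodes. A regression on co-assayed BCL2-family reference pairs converts the normalised counts of each replicate to an apparent Kd. The assay was run in three technical replicates.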

Each scFv is VH, a (GGGGS)3 linker, VL, as in the parent Ab-14, and differs from it in the CDRs of the heavy chain only.
VH: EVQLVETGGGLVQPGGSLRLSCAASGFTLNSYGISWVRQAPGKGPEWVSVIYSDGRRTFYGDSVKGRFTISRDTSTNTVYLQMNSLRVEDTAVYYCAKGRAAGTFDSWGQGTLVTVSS
VL: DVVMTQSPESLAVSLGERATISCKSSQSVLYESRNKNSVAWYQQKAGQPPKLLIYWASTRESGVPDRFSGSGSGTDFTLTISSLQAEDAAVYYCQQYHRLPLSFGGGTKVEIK

The parent's heavy chain CDRs are GFTLNSYGIS, VIYSDGRRTFYGDSVK, GRAAGTFDS; each variant's own CDRs replace them letter for letter.
Affinities are written as log10 Kd with Kd in nM; a lower number is a better binder.
Where no diploid with the target was found in that replicate, the entry reads "n.d.": below detection, most likely a poor binder, though not proof of it.

{"CDR-H1": "GFILYSYGIS", "CDR-H2": "VAYSDGRRTFYGDSVK", "CDR-H3": "GRAAGTFDS", "replicates, log10 nM": "n.d. / n.d. / n.d.", "control signals": "0/9"}
{"CDR-H1": "GFTLNSYGIS", "CDR-H2": "VMYSDGWRTFYGDDVK", "CDR-H3": "GRAAGTFDS", "replicates, log10 nM": "2.96 / 2.70 / 4.19", "control signals": "0/9"}
{"CDR-H1": "GFTLNGYGIS", "CDR-H2": "VIYSDGRRTFYGDSVK", "CDR-H3": "GCAAGTFDS", "replicates, log10 nM": "n.d. / n.d. / n.d.", "control signals": "0/9"}
{"CDR-H1": "GNTLNSYGIS", "CDR-H2": "VIYNDGRWTFYGDSVK", "CDR-H3": "GRAAGTFDS", "replicates, log10 nM": "n.d. / n.d. / 5.94", "control signals": "6/9 (4.43)"}
{"CDR-H1": "GFTLNSYGIS", "CDR-H2": "VIRSDGRRTFYGDSNK", "CDR-H3": "GRAEGTFDS", "replicates, log10 nM": "n.d. / 3.38 / n.d.", "control signals": "1/9 (3.34)"}
{"CDR-H1": "GTTLRSYGIS", "CDR-H2": "VIYSDGTRTFYGDSVK", "CDR-H3": "GRAAGTFDS", "replicates, log10 nM": "2.11 / 3.10 / 3.40", "control signals": "1/9 (3.75)"}
{"CDR-H1": "GGTLNSRGIS", "CDR-H2": "VIYSDGRRTFYYDSVK", "CDR-H3": "GRAAGTFDS", "replicates, log10 nM": "3.00 / n.d. / n.d.", "control signals": "0/9"}
{"CDR-H1": "GFTLNSYGIS", "CDR-H2": "VIYSDGRRTFYGDSVK", "CDR-H3": "TRQTGTFDS", "replicates, log10 nM": "n.d. / n.d. / n.d.", "control signals": "0/9"}
{"CDR-H1": "GFTLNSYGLS", "CDR-H2": "VIYSCGRRLFYGDSVK", "CDR-H3": "GRAAGTFDS", "replicates, log10 nM": "n.d. / n.d. / n.d.", "control signals": "1/9 (5.13)"}
{"CDR-H1": "GFTLNSYGIN", "CDR-H2": "VIYSDGRRTFSGKSVK", "CDR-H3": "GRAAGTFDS", "replicates, log10 nM": "n.d. / 5.03 / n.d.", "control signals": "1/9 (4.60)"}
{"CDR-H1": "GFTQNSYGIS", "CDR-H2": "LIYSDGRRTFYGDSVK", "CDR-H3": "GRAWGTFDS", "replicates, log10 nM": "n.d. / 4.28 / 3.45", "control signals": "1/9 (3.96)"}
{"CDR-H1": "GFTLNSYPIS", "CDR-H2": "VIYSDGRRTFYGVSVK", "CDR-H3": "GRAAGTNDS", "replicates, log10 nM": "n.d. / n.d. / n.d.", "control signals": "2/9 (3.64)"}
{"CDR-H1": "GFTLNSYGIS", "CDR-H2": "GIYSDGRRTFYGDSVK", "CDR-H3": "GRAAGHFDY", "replicates, log10 nM": "n.d. / n.d. / n.d.", "control signals": "3/9 (3.82)"}
{"CDR-H1": "GFTLMSYGIS", "CDR-H2": "VIASDGRRTFYGDSVK", "CDR-H3": "GRGAGTFDS", "replicates, log10 nM": "3.08 / n.d. / 4.10", "control signals": "0/9"}
{"CDR-H1": "GFTLNTYWIV", "CDR-H2": "VIYSDGRRTFYGDSVK", "CDR-H3": "GRAAGTFDS", "replicates, log10 nM": "n.d. / n.d. / n.d.", "control signals": "0/9"}
{"CDR-H1": "GFTLNSYGIS", "CDR-H2": "VIYSDGRNTFYIDSVK", "CDR-H3": "GRAAGTFNS", "replicates, log10 nM": "3.11 / 2.73 / 3.24", "control signals": "1/9 (3.98)"}
{"CDR-H1": "GFTLNSYGIS", "CDR-H2": "VIYSDGSRTFYGDSVK", "CDR-H3": "GRAAGTFDI", "replicates, log10 nM": "1.78 / 2.31 / 2.18", "control signals": "0/9"}
{"CDR-H1": "GFTLNSYGIY", "CDR-H2": "VIYTDGRRTFYRDSVK", "CDR-H3": "GRAAGTFDS", "replicates, log10 nM": "n.d. / n.d. / n.d.", "control signals": "2/9 (4.04)"}
{"CDR-H1": "GFTLNSGGIS", "CDR-H2": "VEYMDGRRTFYGDSVK", "CDR-H3": "GRAAGTFDS", "replicates, log10 nM": "n.d. / 3.64 / 5.84", "control signals": "5/9 (4.70)"}
{"CDR-H1": "SFTLNSYGIS", "CDR-H2": "VIYSDGRRTFYGDSVK", "CDR-H3": "GCAAGCFDS", "replicates, log10 nM": "6.21 / 3.49 / n.d.", "control signals": "4/9 (4.68)"}
{"CDR-H1": "GFTLNSYGIS", "CDR-H2": "VIYSDSRRTFYGDSVP", "CDR-H3": "GRAAGTFDS", "replicates, log10 nM": "n.d. / n.d. / n.d.", "control signals": "0/9"}
{"CDR-H1": "GFTLNSYGIS", "CDR-H2": "VIYSDGRREFYGDSVK", "CDR-H3": "GRAAGTHDS", "replicates, log10 nM": "1.80 / 1.98 / 1.97", "control signals": "0/9"}
{"CDR-H1": "GFTLNPYGIS", "CDR-H2": "VIYSDGLRTFYGKSVK", "CDR-H3": "GRAAGTFDS", "replicates, log10 nM": "n.d. / 3.69 / n.d.", "control signals": "1/9 (4.82)"}
{"CDR-H1": "GFTLNSYHIS", "CDR-H2": "VIYSDGRRTFYEDSVK", "CDR-H3": "GRAAGTFCS", "replicates, log10 nM": "4.55 / 4.20 / n.d.", "control signals": "4/9 (4.87)"}

Parent in this assay: reference entry 0.65, copy in this library 4.11 (one replicate of three).
Empty control strains, which show no peptide, gave a signal in 15% of pairings with library AAYL49; the median was 4.06 and 95% of these signals were weaker than 2.83. No background was subtracted. The control count says in how many pairings with the empty strains this scFv gave a signal, with their mean in brackets.